Antibody variant affinities, Ab-14 heavy chain, assay B

Antigen: PDVDLGDISGINAS, a 14-residue peptide of the SARS-CoV-2 spike HR2 region.

The variants keep the light chain, the linker and the frameworks of Ab-14 (scFv order VH, the linker GGGGSGGGGSGGGGS, VL).
VH: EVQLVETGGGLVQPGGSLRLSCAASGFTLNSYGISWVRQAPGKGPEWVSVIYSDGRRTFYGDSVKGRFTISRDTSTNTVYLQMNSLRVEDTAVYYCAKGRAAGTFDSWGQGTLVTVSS
VL: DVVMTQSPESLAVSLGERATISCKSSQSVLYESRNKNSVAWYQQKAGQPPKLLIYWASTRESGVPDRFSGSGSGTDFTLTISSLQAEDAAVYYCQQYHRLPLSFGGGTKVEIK

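Designed CDR sequences, proposed from the first random library and measured here. Their group label is 14H_GP_HC (GP: Gaussian process model; HC: hill climbing; a sequence that several methods proposed may carry one label only). The assay is AlphaSeq: two haploid yeast populations carry antibody and antigen on their surface. Binding brings cells together so that they mate, and sequencing counts the barcode pairs among the diploids. Read counts were normalised to the haploid input and turned into Kd by a linear fit to BCL2-family pairs of known affinity, for each replicate. The assay was run in six technical replicates.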

The parent's heavy chain CDRs are GFTLNSYGIS, VIYSDGRRTFYGDSVK, GRAAGTFDS; each variant's own CDRs replace them letter for letter.
Numbers give log10(Kd / nM), so 0 is 1 nM and 3 is 1 µM. Smaller is tighter.
The mean shown is taken over the replicates in which the pair was detected.
A pair that was not seen in that replicate is written "n.d."; this usually means weak binding, but a binder can also be missed.
Empty control strains, which show no peptide, gave a signal in 1% of pairings with all heavy chain designs; the median was 2.08 and 95% of these signals were weaker than 0.84. No background was subtracted. Also given: how often the same scFv was detected with the empty control strains, with their mean in brackets.
The authors' rule: three or more of the six replicates give a measured affinity, fewer mean a poor binder.
A sequence measured in both rounds can read differently, since the two assays cover different ranges.

CDR-H1,CDR-H2,CDR-H3,"replicates, log10 nM",mean log10 Kd (nM),signal with controls
GFDLNSYGIS,VIYSDGRRTFYDDSVK,GRAAGTFNS,0.65 n.d. n.d. n.d. n.d. n.d.,0.65,0/18
GFTLNEYGIS,VIYSDGRRTFYKDDVK,GRTAGTFDS,0.08 -0.11 -0.01 0.10 0.07 0.23,0.06,0/18
SFSLNSYGIS,VIYADGRRTFYGDSVK,GRAAGTFDS,n.d. n.d. 0.33 0.94 1.32 n.d.,0.86,0/18
GFTLNEYGIS,VIYSDGKRTFYGDSVK,GRAAGTFDE,1.14 0.88 1.23 1.26 1.44 1.25,1.20,0/18
KFTLNEYGIS,VIYSDGRRTFYTDSVK,GRYAGTFDS,n.d. n.d. 0.86 n.d. n.d. n.d.,0.86,0/18
GFSLNCYGIS,VIYSDGRRTFYDDSVK,GQLAGTFDS,n.d. n.d. n.d. n.d. 2.12 n.d.,2.12,0/18
GFTLNSYGIS,VIYSDGMRTFYSDSVK,GLTAGTFDS,1.29 0.36 0.44 0.38 0.28 0.78,0.59,0/18
GFTLESYGIS,VIYADGRRTFYGDIVK,GRAAGTFKS,n.d. n.d. n.d. n.d. n.d. n.d.,n.d.,0/18
GFTLNSYGIS,VIYADGRRTFYGDSVK,GRAAGFFDS,1.13 0.14 0.09 -0.25 0.44 0.76,0.38,0/18
MFTLESYGIS,VIYADGRRTFYGDSVK,GRAAGTFKS,n.d. n.d. n.d. n.d. n.d. n.d.,n.d.,0/18
GFELNSYGIS,VIYSDGRRTFYSDSVK,GKAGGTFDS,1.26 0.88 2.08 1.21 1.36 0.57,1.23,1/18 (1.71)
GFTLNDYGIS,VIYSDGRRTFYADSVK,GKAAGTFDS,0.18 -0.01 -0.08 0.13 0.25 0.05,0.09,1/18 (2.59)
GFTLNSYGIS,VIYSDGRRTFYSDSVK,GKAAGTFDW,1.08 1.72 1.48 1.17 1.60 2.17,1.54,0/18
GFTLNDYGIS,VIYSDGRRTFYGDSVK,GKAAGTFES,1.98 n.d. n.d. 2.63 2.89 1.93,2.36,1/18 (1.72)
GFELNEYGIS,VIYSDGRRTFYHDSVK,GRAAGTFDQ,1.58 0.76 1.68 1.08 1.09 1.53,1.28,0/18
GFSLNDYGIS,VIYSDGRRTWYGDSVK,GRAAGTFIS,n.d. n.d. n.d. n.d. n.d. n.d.,n.d.,1/18 (1.50)
GFTLNSYGIS,VIYSDGRRTFYKDSVK,GQLAGTFDR,n.d. n.d. n.d. n.d. n.d. n.d.,n.d.,0/18
GFELNDYGIS,VIYSDGRRTYYGDSVK,GRAAGTFDS,1.50 0.90 1.17 2.09 1.72 1.83,1.54,0/18
KFTLNSYGIS,VIYSDGRRTFYSDSVK,GEAGGTFDS,n.d. 1.69 1.25 1.56 1.13 2.84,1.69,0/18
GFTLNEYGIS,VIYSDGRRTFYGDSVK,GKAAGTFDE,0.32 1.00 -0.17 0.63 0.81 0.03,0.44,0/18
GFTLNEYGIS,VIYSDGRRTFYDDDVK,GRAAGTFDQ,0.82 0.62 0.90 0.80 1.04 0.80,0.83,0/18
GFTLNEYGIS,VIYSDGRRTFYGDSVK,GREAGTFDE,n.d. n.d. n.d. n.d. n.d. n.d.,n.d.,0/18
GFDLNSYGIS,VIYSDGRRTFYCDSVK,GQLAGTFDS,1.16 1.12 0.74 1.03 0.77 1.00,0.97,0/18
GFLLNDYGIS,VIYSDGRRTFYKDSVK,GQAAGTFDS,0.91 0.69 0.22 0.67 0.74 0.79,0.67,0/18
WFTLESYGIS,VIYADGRRTFYGDSVK,GRAAGTFDS,n.d. n.d. n.d. n.d. n.d. n.d.,n.d.,0/18
GFTLNDYGIS,VIYSDGRRTFYMDSVK,GRTAGTFIS,n.d. n.d. n.d. n.d. n.d. n.d.,n.d.,0/18
WFTLESYGIS,VIYADGRRTFYGDSVK,GRAAGTFKS,n.d. n.d. n.d. n.d. n.d. n.d.,n.d.,0/18
GFRLNSYGIS,VIYSDGRRTFYDDSVK,GQVAGTFDS,0.48 1.08 0.76 1.30 1.01 1.28,0.98,1/18 (3.27)
GFTLNEYGIS,VIYSDGRRTFYGDSVK,GRMAGTFDA,0.85 0.96 0.96 0.91 1.09 1.53,1.05,0/18
GFNLNSYGIS,VIYSDGRRTFYKDSVK,GQLAGTFDS,1.86 0.52 0.16 0.20 0.88 2.24,0.98,0/18
GFVLNEYGIS,VIYSDGRRTFYTDSVK,GRAAGTFDS,1.03 1.28 0.54 1.30 0.99 1.44,1.10,0/18
GFDLNEYGIS,VIYSDGRRTFYTDSVK,GRQAGTFDS,-0.32 -0.26 -0.18 -0.23 0.03 0.27,-0.12,0/18
GFTLNEYGIS,VIYSDGRRTFYTDSVK,GRFAGTFIS,n.d. n.d. n.d. n.d. n.d. n.d.,n.d.,0/18
GFGLNDYGIS,VIYSDGRRTFYIDSVK,GRLAGTFDS,1.06 0.90 0.81 0.89 1.59 1.21,1.08,0/18
GFLLNDYGIS,VIYSDGRRTFYKDSVK,GRAAGTFTS,n.d. n.d. n.d. n.d. n.d. n.d.,n.d.,0/18
EFDLNSYGIS,VIYSDGRRTFYSDSVK,GEAGGTFDS,1.47 1.06 n.d. n.d. n.d. n.d.,1.26,1/18 (2.00)

Extract of 3 entries:

{"CDR-H1": "GFSLNCYGIS", "CDR-H2": "VIYSDGRRTFYDDSVK", "CDR-H3": "GQLAGTFDS", "replicates, log10 nM": "n.d. n.d. n.d. n.d. 2.12 n.d.", "mean log10 Kd (nM)": "2.12", "signal with controls": "0/18"}
{"CDR-H1": "EFDLNSYGIS", "CDR-H2": "VIYSDGRRTFYSDSVK", "CDR-H3": "GEAGGTFDS", "replicates, log10 nM": "1.47 1.06 n.d. n.d. n.d. n.d.", "mean log10 Kd (nM)": "1.26", "signal with controls": "1/18 (2.00)"}
{"CDR-H1": "GFELNDYGIS", "CDR-H2": "VIYSDGRRTYYGDSVK", "CDR-H3": "GRAAGTFDS", "replicates, log10 nM": "1.50 0.90 1.17 2.09 1.72 1.83", "mean log10 Kd (nM)": "1.54", "signal with controls": "0/18"}

Values reported by Li et al. 2023, doi:10.1038/s41467-023-39022-2 (FLAb copy).